What was measured:
Human KLK1 = Human KLK1 (Homo sapiens (Human), UniProt P06870); test: Determination of the IC50 for KLK1; assay type: biochemical
Human plasma kallikrein = Human plasma kallikrein (Homo sapiens (Human), UniProt P03952); test: Determination of the IC50 for plasma kallikrein; assay type: biochemical; settings: 25° C., fluorogenic substrate H-DPro-Phe-Arg-AFC; read-out: IC50 (human PKaI)

By UniProt entry, the sequences of proteins in these tests, tags left out. Residues count along the entry.
UniProt P06870, 25-262: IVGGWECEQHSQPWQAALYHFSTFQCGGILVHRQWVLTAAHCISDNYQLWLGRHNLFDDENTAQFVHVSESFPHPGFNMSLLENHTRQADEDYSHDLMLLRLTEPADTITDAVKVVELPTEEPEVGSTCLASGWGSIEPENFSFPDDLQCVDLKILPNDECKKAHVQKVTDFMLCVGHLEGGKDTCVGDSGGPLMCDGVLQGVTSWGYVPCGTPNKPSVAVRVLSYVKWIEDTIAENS
UniProt P03952, 20-390 partner: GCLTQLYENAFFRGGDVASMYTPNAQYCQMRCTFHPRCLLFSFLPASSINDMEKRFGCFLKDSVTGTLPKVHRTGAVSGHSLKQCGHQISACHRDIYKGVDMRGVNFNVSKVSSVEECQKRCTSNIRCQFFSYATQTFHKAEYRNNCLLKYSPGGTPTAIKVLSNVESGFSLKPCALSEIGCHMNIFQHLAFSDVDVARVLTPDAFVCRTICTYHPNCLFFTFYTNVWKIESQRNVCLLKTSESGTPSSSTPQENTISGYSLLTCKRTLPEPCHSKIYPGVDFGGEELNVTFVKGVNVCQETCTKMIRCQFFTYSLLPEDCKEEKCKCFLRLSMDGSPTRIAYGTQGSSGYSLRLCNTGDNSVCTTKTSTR
UniProt P03952, 391-638: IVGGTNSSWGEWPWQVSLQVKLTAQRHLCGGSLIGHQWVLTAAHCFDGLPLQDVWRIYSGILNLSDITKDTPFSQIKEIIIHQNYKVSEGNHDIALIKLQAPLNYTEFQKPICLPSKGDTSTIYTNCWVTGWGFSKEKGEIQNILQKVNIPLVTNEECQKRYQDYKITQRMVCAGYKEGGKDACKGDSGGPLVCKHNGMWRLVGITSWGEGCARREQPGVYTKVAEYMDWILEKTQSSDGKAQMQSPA

SMILES: COCc1nn(Cc2ccc(Cn3ccccc3=O)cc2)cc1C(=O)NCc1c(Cl)ccc(OC)c1F [Example 99, N-[(6-chloro-2-fluoro-3-methoxyphenyl)methyl]-3-(methoxymethyl)-1-({4-[(2-oxopyridin-1-yl)methyl]phenyl}methyl)pyrazole-4-carboxamide]
- IC50 (Human KLK1): > 10000 nM
- IC50 (Human plasma kallikrein): 6.4 nM

From patent publication US10364238B2, “N-((het) arylmethyl)-heteroaryl-carboxamides compounds as plasma kallikrein inhibitors” (KALVISTA PHARMACEUTICALS LIMITED, priority 2014, dated 2019)
